Laboratory results taken from PubChem BioAssay (NCI).
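Briefly, cells in 96-well plates were exposed to five compound concentrations for 48 h, and endpoints were estimated by linear interpolation. The concentration for full growth arrest is given as TGI.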

Legend:
Test in all cases: inhibition of tumour cell growth, NCI panel, 48 h
A498 renal = tested on: A498 renal
IGROV1 ovarian = tested on: IGROV1 ovarian
KM20L2 colon = tested on: KM20L2 colon
DMS 114 small cell lung = tested on: DMS 114 small cell lung
NCI-H460 lung = tested on: NCI-H460 lung
SNB-75 CNS = tested on: SNB-75 CNS
UACC-257 melanoma = tested on: UACC-257 melanoma
SK-MEL-5 melanoma = tested on: SK-MEL-5 melanoma
OVCAR-3 ovarian = tested on: OVCAR-3 ovarian
SF-268 CNS = tested on: SF-268 CNS
U251 CNS = tested on: U251 CNS
SNB-78 CNS = tested on: SNB-78 CNS
HOP-92 NSCLC = tested on: HOP-92 NSCLC
RXF 393 renal = tested on: RXF 393 renal
LOX IMVI melanoma = tested on: LOX IMVI melanoma
NCI-H23 lung = tested on: NCI-H23 lung
UO-31 renal = tested on: UO-31 renal
HOP-18 NSCLC = tested on: HOP-18 NSCLC
ACHN renal = tested on: ACHN renal
K-562 leukemia = tested on: K-562 leukemia
DMS 273 small cell lung = tested on: DMS 273 small cell lung
CCRF-CEM leukemia = tested on: CCRF-CEM leukemia
OVCAR-8 ovarian = tested on: OVCAR-8 ovarian
NCI-H322M lung = tested on: NCI-H322M lung
COLO 205 colon = tested on: COLO 205 colon
NCI-H522 lung = tested on: NCI-H522 lung
SR leukemia = tested on: SR leukemia
HOP-62 NSCLC = tested on: HOP-62 NSCLC
MALME-3M melanoma = tested on: MALME-3M melanoma
OVCAR-5 ovarian = tested on: OVCAR-5 ovarian
HCT-116 colon = tested on: HCT-116 colon
786-0 renal = tested on: 786-0 renal
M19-MEL melanoma = tested on: M19-MEL melanoma
HT29 colon = tested on: HT29 colon
RPMI-8226 leukemia = tested on: RPMI-8226 leukemia
SK-MEL-2 melanoma = tested on: SK-MEL-2 melanoma
SK-OV-3 ovarian = tested on: SK-OV-3 ovarian
EKVX NSCLC = tested on: EKVX NSCLC
SF-539 CNS = tested on: SF-539 CNS
M14 melanoma = tested on: M14 melanoma
HL-60(TB) leukemia = tested on: HL-60(TB) leukemia
SNB-19 CNS = tested on: SNB-19 CNS
MOLT-4 leukemia = tested on: MOLT-4 leukemia
KM12 colon = tested on: KM12 colon
NCI-H226 lung = tested on: NCI-H226 lung
UACC-62 melanoma = tested on: UACC-62 melanoma
CAKI-1 renal = tested on: CAKI-1 renal
HCT-15 colon = tested on: HCT-15 colon
SF-295 CNS = tested on: SF-295 CNS
SW-620 colon = tested on: SW-620 colon
SN12C renal = tested on: SN12C renal
OVCAR-4 ovarian = tested on: OVCAR-4 ovarian
A549 NSCLC = tested on: A549 NSCLC
HCC-2998 colon = tested on: HCC-2998 colon
TK-10 renal = tested on: TK-10 renal
XF 498 CNS = tested on: XF 498 CNS
DLD-1 colon = tested on: DLD-1 colon
SK-MEL-28 melanoma = tested on: SK-MEL-28 melanoma

Measured: TGI

CC1(C)CN1P(=O)(Nc1ncccn1)N1CC1(C)C (stereo not drawn)
43.8 µM: CAKI-1 renal
> 100 µM: all other assays above
